Experimental findings from patent US11813252B2 (dated 2023) are described below.

This data set in a line: in vivo. The following applies: C57BL6, mouse, brain/plasma, oral.

Take `Cc1nc(Nc2ncc(C(=O)Nc3c(C)cccc3Cl)s2)cc(N2CCN(CCO)CC2)n1` [Dasatinib, dasatinib]: the Kp at 1 h was 0.04 and the Kp at 4 h amounted to 0.11.
